From patent publication US10202345B2, “Substituted azaspiro(4.5)decane derivatives” (priority 2014, dated 2019)

Chains of the proteins cited; added tags and fusions are not shown. Lines headed by an entry give the natural chain unless they say otherwise; changes in a name come on top.
UniProt P41146: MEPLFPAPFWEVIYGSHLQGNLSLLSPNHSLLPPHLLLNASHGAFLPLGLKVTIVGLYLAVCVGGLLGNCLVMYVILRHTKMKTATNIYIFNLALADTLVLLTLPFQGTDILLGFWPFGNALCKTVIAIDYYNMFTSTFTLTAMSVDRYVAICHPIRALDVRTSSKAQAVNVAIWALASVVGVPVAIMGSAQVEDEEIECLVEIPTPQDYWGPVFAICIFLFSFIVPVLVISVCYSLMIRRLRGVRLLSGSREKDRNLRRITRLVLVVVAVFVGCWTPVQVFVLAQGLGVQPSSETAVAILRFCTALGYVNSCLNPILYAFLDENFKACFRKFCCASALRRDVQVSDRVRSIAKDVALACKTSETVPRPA
UniProt P35372, whole entry, looked up: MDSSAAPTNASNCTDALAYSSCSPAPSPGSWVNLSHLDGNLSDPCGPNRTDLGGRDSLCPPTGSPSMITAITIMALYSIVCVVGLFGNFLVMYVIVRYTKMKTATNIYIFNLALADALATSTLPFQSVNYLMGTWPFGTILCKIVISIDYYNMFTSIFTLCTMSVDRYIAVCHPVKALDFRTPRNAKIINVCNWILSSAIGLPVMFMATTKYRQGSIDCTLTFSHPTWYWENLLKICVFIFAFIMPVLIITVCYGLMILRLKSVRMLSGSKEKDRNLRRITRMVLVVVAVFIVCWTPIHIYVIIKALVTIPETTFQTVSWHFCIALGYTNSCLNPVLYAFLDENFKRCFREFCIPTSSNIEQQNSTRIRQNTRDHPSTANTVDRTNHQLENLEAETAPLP

Assays:
ORL1 receptor = ORL1 receptor (Homo sapiens, UniProt P41146); experiment: ORL1 receptor binding assay with 3H-nociceptin/orphanin FQ (WGA-SPA beads); conditions: for Ki: read-out: Ki (ORL1) mean, mean; for % inhibition (ORL1) [1 μM]: test concentration 1 μM
human μ opiate receptor = human μ opiate receptor (Homo sapiens, UniProt P35372); experiment: μ opiate receptor binding assay with [3H]-naloxone (WGA-SPA beads); conditions: for Ki: read-out: Ki (μ) mean [μm], mean; for % inhibition (μ) [1 μM]: test concentration 1 μM

Row | Compound | Ki (ORL1 receptor) [nM] | % inhibition (ORL1) [1 μM] (ORL1 receptor; 1 µM) [%] | Ki (human μ opiate receptor) [nM] | % inhibition (μ) [1 μM] (human μ opiate receptor; 1 µM) [%] | % inhibition (ORL1) [1 μM] (ORL1 receptor) [%] | % inhibition (μ) [1 μM] (human μ opiate receptor) [%]
1 | (8-Benzyl-3-butyl-3-azaspiro[4.5]decan-8-yl)-dimethylamine [11] | 160 | 43.5 | 34 | 71.5 | – | –
2 | COCC1(C(=O)N2CCC3(CCC(c4ccc(C)s4)(N(C)C)CC3)C2)CC1 (stereo not drawn) | 355 | – | 37 | – | 23.5 | 92
3 | CN(C)C1(c2cccs2)CCC2(CCN(CCC3CCOC3)C2)CC1 (stereo not drawn) | 1.13 | – | 1.5 | – | 94 | 100
4 | CN(C)C1(c2cccs2)CCC2(CCN(CC3CCCC3)C2=O)CC1 (stereo not drawn) | 1570 | – | 145 | – | 20 | 67.5
5 | CN1CC2(CCC(C3CCCC3)(N(C)C)CC2)CC1=O (stereo not drawn) | 1380 | – | – | – | 19.5 | 67.5
6 | CN(C)C1(C2CCCC2)CCC2(CCN(CCC3(C#N)CC3)C2)CC1 (stereo not drawn) | 39 | – | 1.6 | – | 64 | 97.7
7 | CCCC(=O)N1CCC2(CCC(c3ccccc3)(N3CCC3)CC2)C1 (stereo not drawn) | 1520 | – | 1210 | – | 24.5 | 43.5
8 | CCCCN1CCC2(CCC(c3ccc(F)s3)(N(C)C)CC2)C1 (stereo not drawn) | 6.8 | – | 8.05 | – | 86.5 | 95.5
9 | CCCCN1CCC2(CCC(c3ccc(C)s3)(N(C)C)CC2)C1 (stereo not drawn) | 39 | – | 8.15 | – | 91 | 98.5
10 | COCC(C)(C)C(=O)N1CCC2(CCC(c3ccccc3)(N(C)C)CC2)C1 (stereo not drawn) | 16.9 | – | 6.35 | – | 79 | 97.5
11 | CNC1(c2ccccc2)CCC2(CC1)CC(=O)N(CCC1CCC1)C2 (stereo not drawn) | 7.6 | – | 1.65 | – | 91 | 100
12 | CCCCN1CCC2(CCC(C3CCCC3)(N(C)C)CC2)C1 (stereo not drawn) | 19 | – | 9.6 | – | 85 | 99.5
13 | CCOCCN1CC2(CCC(c3cccs3)(N(C)C)CC2)CC1=O (stereo not drawn) | 3.45 | – | 4.15 | – | 92.5 | 99.5
14 | COC(C)(C)CCN1CC2(CCC(c3ccc(C)s3)(N(C)C)CC2)CC1=O (stereo not drawn) | 3.5 | – | 1.4 | – | 93.5 | 101
15 | CNC1(c2cccs2)CCC2(CC1)CC(=O)N(CCC1(OC)CCC1)C2 (stereo not drawn) | 9.35 | – | 1.3 | – | 90.5 | 99
16 | COCC1(C(=O)N2CCC3(CCC(c4cccs4)(N(C)C)CC3)C2)CC1 (stereo not drawn) | 86.5 | – | 13.5 | – | 78.5 | 96
17 | CN(C)C1(c2ccccc2)CCC2(CC1)CC(=O)N(CC1(C#N)CC1)C2 (stereo not drawn) | 1.8 | – | 3.6 | – | 96.5 | 98
18 | COCCN1CC2(CCC(c3ccccc3)(N(C)C)CC2)CC1=O (stereo not drawn) | 8.4 | – | 13 | – | 88 | 95
19 | CN(C)C1(c2cccs2)CCC2(CCN(CC3CCOC3)C2)CC1 (stereo not drawn) | 11.1 | – | 5.3 | – | 87 | 98
20 | CCCC(=O)N1CCC2(CCC(CC3CCCC3)(N(C)C)CC2)C1 (stereo not drawn) | 440 | – | 26.5 | – | 46 | 96.5
21 | CN(C)C1(c2ccccc2)CCC2(CCN(C(=O)C(C)(C)C#N)C2)CC1 (stereo not drawn) | 240 | – | 79.5 | – | 60.5 | 90
22 | CN(C)C1(C2CCCC2)CCC2(CCN(C(=O)C3COC3)C2)CC1 (stereo not drawn) | – | – | – | – | 0.5 | 66
23 | CN(C)C1(c2cccs2)CCC2(CCN(CC3CCC3)C2)CC1 (stereo not drawn) | 1.7 | – | 1.02 | – | 97 | 100
24 | COC(C)(C)C(=O)N1CCC2(CCC(c3ccccc3)(N(C)C)CC2)C1 (stereo not drawn) | 180 | – | 49 | – | 57 | 85.5
25 | CC(=O)N1CCC2(CCC(c3ccccc3)(N(C)C)CC2)C1 (stereo not drawn) | 161 | – | 275 | – | 43 | 58.5
26 | Cc1ccc(C2(N(C)C)CCC3(CCN(C(=O)C4CCC4)C3)CC2)s1 (stereo not drawn) | 23 | – | 8.05 | – | 73.5 | 98.5
27 | CN(C)C1(c2ccccc2)CCC2(CCN(CC3(C#N)CCC3)C2)CC1 (stereo not drawn) | 7.6 | – | 2.5 | – | 92 | 98
28 | CCCCN1CCC2(CCC(CC3CCCC3)(N(C)C)CC2)C1 (stereo not drawn) | 275 | – | 6.8 | – | 57.5 | 103

Row | Compound | Ki (ORL1 receptor) [nM] | % inhibition (ORL1) [1 μM] (ORL1 receptor; 1 µM) [%] | Ki (human μ opiate receptor) [nM] | % inhibition (μ) [1 μM] (human μ opiate receptor; 1 µM) [%] | % inhibition (ORL1) [1 μM] (ORL1 receptor) [%] | % inhibition (μ) [1 μM] (human μ opiate receptor) [%]
29 | CN(C)C1(c2ccccc2)CCC2(CCN(CC3(O)CCC3)C2)CC1 (stereo not drawn) | 9.7 | – | 6.1 | – | 89 | 97
30 | CCOC(C)CC(=O)N1CCC2(CCC(c3ccccc3)(N(C)C)CC2)C1 (stereo not drawn) | 2 | – | 2.6 | – | 96.5 | 97.5
31 | CCCCN1CCC2(CCC(c3ccccc3)(N(C)C)CC2)C1 (stereo not drawn) | 9.75 | – | 6.5 | – | 80 | 93
32 | CN(C)C1(c2cccs2)CCC2(CCN(C(=O)CCC3(C#N)CC3)C2)CC1 (stereo not drawn) | 1.45 | – | 1.25 | – | 95 | 99
33 | CCCC(=O)N1CCC2(CCC(c3cccs3)(N3CCC3)CC2)C1 (stereo not drawn) | 910 | – | 640 | – | 21.5 | 54
34 | CC(C)C(=O)N1CCC2(CCC(c3ccccc3)(N(C)C)CC2)C1 (stereo not drawn) | 59.5 | – | 24 | – | 66 | 92
35 | Cc1ccc(C2(N(C)C)CCC3(CCNC3)CC2)s1 (stereo not drawn) | – | – | 130 | – | 57.5 | 79.5
36 | CN(C)C1(c2cccs2)CCC2(CCN(CCC3COC3)C2)CC1 (stereo not drawn) | 18 | – | 6.35 | – | 89 | 98.5
37 | CCCC(=O)N1CCC2(CCC(c3ccc(F)s3)(N(C)C)CC2)C1 (stereo not drawn) | 30 | – | 26 | – | 86.5 | 97.5
38 | COC1(C(=O)N2CCC3(CCC(c4cccs4)(N(C)C)CC3)C2)CCC1 (stereo not drawn) | 70 | – | 9.15 | – | 87 | 99
39 | CN(C)C1(c2cccs2)CCC2(CCN(CCC(C)(C)O)C2)CC1 (stereo not drawn) | 3.5 | – | 2.55 | – | 94 | 98
40 | CN(C)C1(C2CCCC2)CCC2(CC1)CC(=O)N(CCC1COC1)C2 (stereo not drawn) | 205 | – | 34 | – | 40 | 87.5
41 | CN1CCC2(CCC(c3cccs3)(N(C)C)CC2)C1 (stereo not drawn) | 80 | – | 44 | – | 70 | 85
42 | COC(C)(C)CN1CCC2(CCC(c3ccccc3)(N(C)C)CC2)C1 (stereo not drawn) | 12.5 | – | 5.4 | – | 88.5 | 98
43 | COC1(CN2CCC3(CCC(c4cccs4)(N(C)C)CC3)C2)CC1 (stereo not drawn) | 3.9 | – | 3.9 | – | 94 | 98.5
44 | CN(C)C1(C2CCCC2)CCC2(CC1)CC(=O)N(CC1CCCC1)C2 (stereo not drawn) | 7.9 | – | 1.4 | – | 88.5 | 99
45 | CN(C)C1(c2cccs2)CCC2(CCN(CC(C)(C)O)C2)CC1 (stereo not drawn) | 16.5 | – | 17.5 | – | 81.5 | 94
46 | CC(C)C(=O)N1CCC2(CCC(c3cccs3)(N(C)C)CC2)C1 (stereo not drawn) | 102 | – | 77 | – | 61 | 85
47 | CNC1(c2ccccc2)CCC2(CCN(C(=O)CC3CCC3)C2)CC1 (stereo not drawn) | 6.05 | – | 1.3 | – | 92.5 | 100.5
48 | COC(C)(C)CC(=O)N1CCC2(CCC(c3ccccc3)(N(C)C)CC2)C1 (stereo not drawn) | 1.9 | – | 1.8 | – | 93 | 99.5
49 | CNC1(c2cccs2)CCC2(CCN(C(=O)CC(C)C)C2)CC1 (stereo not drawn) | 18 | – | 4.15 | – | 72 | 98
50 | CC(C)CN1CC2(CCC(c3ccccc3)(N(C)C)CC2)CC1=O (stereo not drawn) | 5.25 | – | 6.15 | – | 90.5 | 98
51 | CN(C)C1(c2ccccc2)CCC2(CCNC2=O)CC1 (stereo not drawn) | – | – | 1890 | – | 13 | 34
52 | CC(C)CC(=O)N1CCC2(CCC(c3ccccc3)(N(C)C)CC2)C1 (stereo not drawn) | 0.64 | – | 1.35 | – | 95 | 99.5
53 | COCC1(C(=O)N2CCC3(CCC(c4ccccc4)(N(C)C)CC3)C2)CCC1 (stereo not drawn) | 27.5 | – | 19.5 | – | 74 | 96
54 | CC(=O)N1CCC2(CCC(Cc3ccccc3)(N(C)C)CC2)C1 (stereo not drawn) | 2160 | – | – | – | 16 | –
55 | CC(=O)N1CCC2(CCC(Cc3ccccc3)(N(C)C)CC2)C1 (single isomer, unassigned) | – | – | – | – | 25 | –
